Protein sequences, listed by entry. Tags and fused reporters are not part of them. Residues count along the entry.
UniProt P24071, 22-287: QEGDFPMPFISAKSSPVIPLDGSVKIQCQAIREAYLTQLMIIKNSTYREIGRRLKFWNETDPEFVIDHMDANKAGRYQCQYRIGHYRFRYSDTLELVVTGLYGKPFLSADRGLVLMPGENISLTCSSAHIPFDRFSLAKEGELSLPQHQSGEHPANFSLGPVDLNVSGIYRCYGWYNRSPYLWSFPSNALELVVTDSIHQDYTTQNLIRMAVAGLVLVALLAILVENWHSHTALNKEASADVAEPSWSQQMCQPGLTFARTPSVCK

In patent publication USRE50282E1, “Specific modification of antibody with IgG-binding peptide” (KAGOSHIMA UNIVERSITY, priority 2015, dated 2025):

How the values were obtained:
IgA receptor = target: T1, IgA receptor (Homo sapiens, UniProt P24071); test: FACS antigen binding analysis on differentiated HL60 cells highly expressing IgA receptor (Example 10); type: cell-based; settings: primary antibody 200 nM; PE-labeled anti-human IgG polyclonal antibody as secondary
T1 construct: HL60 cells highly expressing an IgA receptor; endogenous in cells; host or cells: HL60 (JCRB), differentiated for 6 days with 1.3% DMSO

SK-BR3 cells = test: Cell growth inhibition, Cell Counting Kit-8, 72 hours (Examples 11 and 12); type: cell-based; settings: antibody alone
Procedure: (§1) After culture at 37° C. for 24 hours in a 5% CO2 incubator, 100 μL of a medium containing each concentration of the antibody-drug conjugate (ADC) prepared as described above was added to each well, and the cells were further cultured at 37° C. for 72 hours in a CO2 incubator. 10 μL of Cell Counting Kit-8 (Dojindo Laboratories) was added to each well. After incubation at 37° C. for 2 hours in a CO2 incubator, the absorbance at 450 nm was measured using a plate reader.
as §1, with “(ADC)” for “(ADC) prepared as described above”

Substance: anti-HER2 human antibody: anti-HER2 humanized IgG1 antibody (Chugai Pharmaceutical Co., Ltd.)
- binding to HL60 cells (fluorescence shift) (IgA receptor): slight fluorescence shift
- cell growth inhibition (SK-BR3 cells): no such cell growth inhibition was seen
